The text below walks through data of ChEMBL document CHEMBL5365487, “Development of 18F-Labeled PET Tracer Candidates for Imaging of the Abelson Non-receptor Tyrosine Kinase in Parkinson's Disease” (J Med Chem, 2023).

Sequences of proteins named here, by UniProt entry; tags and fusion partners are left off.
UniProt P00519, whole entry: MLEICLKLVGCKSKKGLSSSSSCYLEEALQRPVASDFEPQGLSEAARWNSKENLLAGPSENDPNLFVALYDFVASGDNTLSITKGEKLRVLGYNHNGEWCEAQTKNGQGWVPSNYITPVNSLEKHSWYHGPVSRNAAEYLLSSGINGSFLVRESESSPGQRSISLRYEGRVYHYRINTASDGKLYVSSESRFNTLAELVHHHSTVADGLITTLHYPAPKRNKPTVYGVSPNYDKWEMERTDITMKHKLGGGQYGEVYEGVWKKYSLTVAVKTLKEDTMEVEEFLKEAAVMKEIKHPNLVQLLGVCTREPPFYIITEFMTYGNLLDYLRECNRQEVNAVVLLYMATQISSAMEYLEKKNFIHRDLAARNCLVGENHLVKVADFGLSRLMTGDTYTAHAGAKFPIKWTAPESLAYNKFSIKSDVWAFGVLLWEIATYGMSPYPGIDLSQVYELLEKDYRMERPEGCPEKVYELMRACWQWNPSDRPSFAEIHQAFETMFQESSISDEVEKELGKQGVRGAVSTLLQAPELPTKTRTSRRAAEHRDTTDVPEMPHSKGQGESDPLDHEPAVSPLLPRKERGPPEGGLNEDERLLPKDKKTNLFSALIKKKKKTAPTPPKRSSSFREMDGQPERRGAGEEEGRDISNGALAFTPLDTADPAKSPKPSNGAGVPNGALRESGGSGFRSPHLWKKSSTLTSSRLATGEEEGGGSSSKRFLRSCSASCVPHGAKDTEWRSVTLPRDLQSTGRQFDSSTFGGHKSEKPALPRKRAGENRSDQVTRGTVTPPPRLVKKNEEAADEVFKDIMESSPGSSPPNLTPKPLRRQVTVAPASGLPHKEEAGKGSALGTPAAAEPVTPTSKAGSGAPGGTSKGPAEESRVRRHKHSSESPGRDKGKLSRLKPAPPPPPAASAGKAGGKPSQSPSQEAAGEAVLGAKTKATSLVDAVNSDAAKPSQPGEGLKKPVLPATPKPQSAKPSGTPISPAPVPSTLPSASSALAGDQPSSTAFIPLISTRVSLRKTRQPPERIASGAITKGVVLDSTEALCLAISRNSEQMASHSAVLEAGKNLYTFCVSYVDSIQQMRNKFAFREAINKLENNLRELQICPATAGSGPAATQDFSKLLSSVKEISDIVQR

This experiment addresses Tyrosine-protein kinase ABL1 (Homo sapiens, UniProt P00519). Kind of experiment: Inhibition of His-tagged recombinant human c-Abl/ABL measured after 30 mins by ADP-GloTM assay. (In general: ADP-Glo turns the ADP formed in a reaction into a luminescent signal.)

What is called pIC50 is the IC50 on a negative log10 scale, so that one unit is a factor of ten.

pIC50: −log10 of the molar value.

On to `Cc1cc(F)ncc1-c1ccc2nc(NC(=O)[C@@H]3C[C@@H]3F)sc2c1`, for which the negative logarithm of the IC50 (pIC50) is 7.84.
